From patent publication US20200010482A1, “INHIBITORS OF BETA SECRETASE” (Janssen Pharmaceutica NV, priority 2017, published 2020) come the findings set out here.

Chains of the proteins cited; added tags and fusions are not shown. Residues count along the entry.
UniProt Q9Y5Z0, 63-518 limits assumed: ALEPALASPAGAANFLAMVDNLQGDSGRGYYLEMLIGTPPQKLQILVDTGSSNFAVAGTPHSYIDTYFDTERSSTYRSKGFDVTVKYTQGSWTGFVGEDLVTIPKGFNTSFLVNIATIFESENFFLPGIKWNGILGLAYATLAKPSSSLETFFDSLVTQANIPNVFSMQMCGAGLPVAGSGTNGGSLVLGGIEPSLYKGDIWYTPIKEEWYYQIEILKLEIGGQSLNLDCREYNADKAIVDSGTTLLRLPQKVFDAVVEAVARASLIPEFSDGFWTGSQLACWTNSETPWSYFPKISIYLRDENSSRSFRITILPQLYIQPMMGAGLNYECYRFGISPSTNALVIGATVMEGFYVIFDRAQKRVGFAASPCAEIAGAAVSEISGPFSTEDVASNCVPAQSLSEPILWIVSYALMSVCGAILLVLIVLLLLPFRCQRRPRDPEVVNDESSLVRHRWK
UniProt P56817, 46-501 limits assumed: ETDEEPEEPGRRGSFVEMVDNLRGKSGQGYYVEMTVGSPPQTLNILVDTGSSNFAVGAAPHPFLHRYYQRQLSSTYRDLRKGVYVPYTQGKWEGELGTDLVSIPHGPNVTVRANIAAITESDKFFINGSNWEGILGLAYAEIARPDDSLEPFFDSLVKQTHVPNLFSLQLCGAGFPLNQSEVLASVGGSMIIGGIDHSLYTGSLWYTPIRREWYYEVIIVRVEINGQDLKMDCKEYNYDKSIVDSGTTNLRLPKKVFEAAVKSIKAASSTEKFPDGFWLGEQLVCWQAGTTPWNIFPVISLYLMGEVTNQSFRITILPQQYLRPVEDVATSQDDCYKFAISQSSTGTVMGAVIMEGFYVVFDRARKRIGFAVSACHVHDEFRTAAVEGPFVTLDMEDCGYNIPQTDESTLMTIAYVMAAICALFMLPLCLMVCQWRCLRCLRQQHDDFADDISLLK

The target of one assay is BACE2 (Homo sapiens, UniProt Q9Y5Z0). The experiment in a line: BACE2 biochemical FRET based assay. The conditions noted are these: recombinant BACE2 0.4 μg/ml, 10 μM substrate, 450 min, pH 5.0. The source says:
(§1) This assay is a Fluorescence Resonance Energy Transfer Assay (FRET) based assay. The substrate for this assay contains the ‘Swedish’ Lys-Met/Asn-Leu mutation of the amyloid precursor protein (APP) beta-secretase cleavage site. This substrate also contains two fluorophores: (7-methoxycoumarin-4-yl) acetic acid (Mca) is a fluorescent donor with excitation wavelength at 320 nm and emission at 405 nm and 2,4-Dinitrophenyl (Dnp) is a proprietary quencher acceptor. […] Upon cleavage by the beta-secretase, the fluorophore Mca is separated from the quenching group Dnp, restoring the full fluorescence yield of the donor. The increase in fluorescence is linearly related to the rate of proteolysis.
Briefly in a 384-well format recombinant BACE2 protein in a final concentration of 0.4 μg/ml is incubated for 450 minutes at room temperature with 10 μM substrate in incubation buffer (50 mM Citrate buffer pH 5.0, 0.05% PEG, no DMSO) in the absence or presence of compound. Next the amount of proteolysis is directly measured by fluorescence measurement at T=0 and T=450 (excitation at 320 nm and emission at 405 nm). Results are expressed in RFU (Relative Fluorescence Units), as difference between T450 and TO.
(§2) A best-fit curve is fitted by a minimum sum of squares method to the plot of % Controlmin versus compound concentration. From this an IC50 value (inhibitory concentration causing 50% inhibition of activity) can be obtained. • LC=Median of the low control values=Low control: Reaction without enzyme • HC=Median of the High control values=High Control: Reaction with enzyme
(§3) % Effect=100−[(sample−LC)/(HC−LC)*100]
(§4) % Control=(sample/HC)*100
(§5) % Controlmin=(sample−LC)/(HC−LC)*100

The next assay addresses BACE1 (Homo sapiens, UniProt P56817). The experiment in a line: BACE1 biochemical FRET based assay. The note with it: recombinant BACE1 0.04 μg/ml, 20 μM substrate, 450 min, pH 5.0.
Text: as §1, with “this assay is an APP derived 13 amino acids peptide that contains the” for “this assay contains the”, “cleavage by BACE1, the fluorophore” for “cleavage by the beta-secretase, the fluorophore”
Briefly in a 384-well format recombinant BACE1 protein in a final concentration of 0.04 μg/ml is incubated for 450 minutes at room temperature with 20 μM substrate in incubation buffer (50 mM Citrate buffer pH 5.0, 0.05% PEG) in the presence of compound or DMSO. Next the amount of proteolysis is directly measured by fluorescence measurement (excitation at 320 nm and emission at 405 nm) at different incubation times (0, 30, 60, 90, 120 and 450 min). For every experiment a time curve (every 30 min between 0 min and 120 min) is used to determine the time where we find the lowest basal signal of the high control. The signal at this time (Tx) is used to subtract from the signal at 450 min. Results are expressed in RFU, as difference between T450 and Tx.
as §2, §3, §4, §5

The subject of assay [1] is Abeta 1-42 produced and secreted by SKNBE2 cells expressing hAPP695. In words: Cellular αLisa assay in SKNBE2 cells, Abeta 1-42. The note with it: SKNBE2 cells expressing hAPP695, 18 hours incubation. The method, then:
In two αLisa assays the levels of Abeta total and Abeta 1-42 produced and secreted into the medium of human neuroblastoma SKNBE2 cells are quantified. The assay is based on the human neuroblastoma SKNBE2 expressing the wild type Amyloid Precursor Protein (hAPP695). The compounds are diluted and added to these cells, incubated for 18 hours and then measurements of Abeta 1-42 and Abeta total are taken. Abeta total and Abeta 1-42 are measured by sandwich αLisa. αLisa is a sandwich assay using biotinylated antibody AbN/25 attached to streptavidin coated beads and antibody Ab4G8 or cAb42/26 conjugated acceptor beads for the detection of Abeta total and Abeta 1-42 respectively. In the presence of Abeta total or Abeta 1-42, the beads come into close proximity. The excitation of the donor beads provokes the release of singlet oxygen molecules that trigger a cascade of energy transfer in the acceptor beads, resulting in light emission. Light emission is measured after 1 hour incubation (excitation at […] and emission at 615 nm).
A best-fit curve is fitted by a minimum sum of squares method to the plot of % Controlmin versus compound concentration. From this an IC50 value (inhibitory concentration causing 50% inhibition of activity) can be obtained. • LC=Median of the low control values=Low control: cells preincubated without compound, without biotinylated Ab in the αLisa • HC=Median of the High control values=High Control: cells preincubated without compound
as §3, §4, §5

Another assay deals with β-secretase I (BACE1) (Homo sapiens, UniProt P56817). In words: Biochemical assay, automated (CyclOps), BACE1. The conditions noted are these: automated CyclOps bioassay. The method, then:
(§6) Unless otherwise indicated all biochemicals were purchased from Sigma-Aldrich Chemical Company, Poole, Dorset, U.K. and non-aqueous solvents, of analytical or higher grade, were purchased from ThermoFisher Scientific, Loughborough, U.K. MilliQ water (Elix 5 & MilliQ Gradient; Merck Millipore) was used as the base aqueous solvent to make up the biological buffers. Base assay buffer was prepared by adding a 50 mM solution of citric acid (1.00244; Merck Biosciences) to stirring solution of 50 mM trisodium citrate (1.06448; Merck Biosciences) until a final pH of 5.0 was achieved. […] All assays were routinely carried out in 384-well assay plates (Costar 4514; Corning Life Sciences) and incubated at 37±1° C. for 60 min. prior to reading the endpoint fluorescence intensity. The (7-methoxyl coumarin-4-yl)acetic acid based substrate β-secretase substrate VI (M2465; Bachem) was prepared as a 1 mM stock in 100% DMSO (D/4121/PB08; ThermoFisher). Assay buffer was prepared by adding DMSO to base buffer to a final concentration of 1% (vol./vol.). β-secretase I (18.64 μM; “BACE1”) and β-secretase II (4.65 μM; “BACE2”) were obtained from Janssen Pharmaceutica, Beerse, Belgium and were stored as frozen aliquots (˜20 μl) and thawed as required.
(§7) Typically 12.5 μl of assay buffer was dispensed to rows B to P of the assay plate. To row A was added 18.75 μl of test compound diluted appropriately in assay buffer. A 6.25 μl aliquot of sample was transferred from row A to row B and the sample mixed three times by pipette. The process was repeated down the plate and 6.25 μl of solution discarded at row N post-mix. Rows O and P were designated as the positive and negative controls. To row P was added 6.25 μl base buffer. To rows A to O was added 6.25 μl enzyme (freshly prepared 40 nM BACE1 or 40 nM BACE2) diluted in base buffer. To initiate the assay 6.25 μl of freshly prepared 80 μM substrate, made up by diluting the 1 mM in 100% DMSO solution into HPLC grade water (Optima W6-212; ThermoFisher), was added to all the wells. The assay plate was covered and incubated at 37±1° C. for 60 min. The fluorescence intensity of the wells was read at 360/405 nm (excitation/emission) utilising a nine reads per well protocol (50 ms integration; density of 3, 0.25 mm spacing; SpectraMAX Paradigm plate reader; TUNE cartridge; SoftMax Pro v 6.3 software; Molecular Devices UK Ltd., Wokingham, Berkshire, UK) and outputting the median value of the nine reads as a text file. Data analysis was carried out using Prism software v 6.3 (GraphPad Inc., San Diego, Calif., USA) using the non-linear regression analysis models supplied by the vendor. For IC50 determinations the four parameter logistic variable slope model was used to fit the raw fluorescence intensity data with the ‘bottom’ fixed to the negative control.
(§8) The CyclOps bioassay module consisted of a fraction collection station, a reagent station, liquid handling robotics, plate store and an integrated plate reader (SpectraMAX Paradigm, TUNE cartridge, SoftMax Pro v 6.3; Molecular Devices). The fraction collection station composed of a 384 well collection plate (P-384-240SQ-C; Axygen, Union City, Calif., USA) mounted on a H-portal carriage (Festo AG & Co. KG, Esslingen, Germany), a syringe drive and a two-way six port injection valve fitted with a 200 μl loop (VICI AG International, Schenkon Switzerland). The output of the injection valve was addressable to all the positions of a 384 well collection plate. The reagent station consisted of hydraulically cooled (10-12° C.) aluminium segments; each manufactured to house a SBS microtiter plate footprint. Independent addressable reagent stations were housed within these sections. Where required, custom aluminium housings were used to accommodate standard laboratory plastic ware (e.g. Eppendorf tubes, Falcon tubes, etc.). As and when required the reagent reservoirs were covered and the lids contained holes through which the Teflon-coated probe could access solutions. […]

The next assay has as its target β-secretase II (BACE2) (Homo sapiens, UniProt Q9Y5Z0). In words: Biochemical assay, automated (CyclOps), BACE2. The conditions noted are these: automated CyclOps bioassay. The method, then:
as §6, §7, §8

Structures are written as SMILES.

Consider `COc1ncc(-c2cc(C)ncc2C)c2c1C[C@]1(c3ccc(F)cc3F)N=C(N)SC[C@@H]1C2`, for which the “BIOCHEMICAL FRET BASED ASSAY pIC50” value on BACE2 was 5.83; on BACE1 it was 7.44. For the same compound, in assay [1], the “CELLULAR αLISA ASSAY IN SKNBE2 CELLS ABETA 42 PIC50” value stood at 8.19.
The corresponding values for `COc1ccc(-c2cnc(OC)c3c2C[C@H]2CSC(N)=N[C@@]2(c2ccc(F)cc2F)C3)cn1` are 7.86, 8.16 and 8.46.
As for `COc1ncc(-c2cccn(C)c2=O)c2c1C[C@]1(c3ccc(F)cc3F)N=C(N)SC[C@@H]1C2`, the “BIOCHEMICAL FRET BASED ASSAY pIC50” value at BACE2 was 5.23; on BACE1, 6.69. Also, the “CELLULAR αLISA ASSAY IN SKNBE2 CELLS ABETA 42 PIC50” value in assay [1] was determined as 7.21.
`COc1ncc(CO)c2c1C[C@]1(c3ccc(F)cc3F)N=C(N)SC[C@@H]1C2`: the “BIOCHEMICAL FRET BASED ASSAY pIC50” value at BACE2 is listed as 6.7; at BACE1 it was 7.43. Further, in assay [1], the “CELLULAR αLISA ASSAY IN SKNBE2 CELLS ABETA 42 PIC50” value is 8.
As for `COc1ncc(-c2c(C)noc2C)c2c1C[C@]1(c3cc(OCCC(C)(C)C)ccc3F)N=C(N)SC[C@@H]1C2`, the “AUTOMATED ASSAY BACE1 pIC50” value on β-secretase I (BACE1) is reported as 6.6. For the same compound, the “AUTOMATED ASSAY BACE2 pIC50” value at β-secretase II (BACE2) stood at 5.49.
The corresponding values for `COc1ccc(-c2cnc(OC)c3c2C[C@H]2CSC(N)=N[C@@]2(c2cc(OCc4csc(C)n4)ccc2F)C3)c(F)c1` are 7.33 and 7.16.
For `COc1ncc(-c2cnc3c(c2)CCCC3)c2c1C[C@]1(c3ccc(F)cc3F)N=C(N)SC[C@@H]1C2` the same measures were 7.62 and 7.3.
Take `COc1ncc(-c2ccc(N3CCOCC3)c(F)c2)c2c1C[C@]1(c3ccc(F)cc3F)N=C(N)SC[C@@H]1C2`: the “AUTOMATED ASSAY BACE1 pIC50” value at β-secretase I (BACE1) amounted to 8.44. Besides, the “AUTOMATED ASSAY BACE2 pIC50” value on β-secretase II (BACE2) is 8.33.
With `COc1ncc(-c2cnc(N(C)C)cn2)c2c1C[C@]1(c3ccc(F)cc3F)N=C(N)SC[C@@H]1C2`, the “AUTOMATED ASSAY BACE1 pIC50” value at β-secretase I (BACE1) is on record as 7.27. At β-secretase II (BACE2), the “AUTOMATED ASSAY BACE2 pIC50” value was 6.99.
With `COc1cccc(COc2ccc(F)c([C@]34Cc5c(OC)ncc(-c6cc(OC)ccc6F)c5C[C@H]3CSC(N)=N4)c2)c1`, the “AUTOMATED ASSAY BACE1 pIC50” value on β-secretase I (BACE1) is 6.24. Further, at β-secretase II (BACE2), the “AUTOMATED ASSAY BACE2 pIC50” value is on record as 6.24.
Turning to `COc1ncc(-c2c(C)noc2C)c2c1C[C@]1(c3cc(OCc4ccccn4)ccc3F)N=C(N)SC[C@@H]1C2`, the “AUTOMATED ASSAY BACE1 pIC50” value on β-secretase I (BACE1) came to 6.85. For the same compound, on β-secretase II (BACE2), the “AUTOMATED ASSAY BACE2 pIC50” value worked out at 5.96.
In the case of `COc1ncc(-c2cccc3c2ccn3C)c2c1C[C@]1(c3ccc(F)cc3F)N=C(N)SC[C@@H]1C2`, the “AUTOMATED ASSAY BACE1 pIC50” value on β-secretase I (BACE1) (tested form: free base) is listed as 7.13. In addition, the “AUTOMATED ASSAY BACE2 pIC50” value at β-secretase II (BACE2) (tested form: free base) is 6.59.
In the case of `COc1ccc(-c2cnc(OC)c3c2C[C@H]2CSC(N)=N[C@@]2(c2ccc(F)cc2F)C3)c(F)c1`, at β-secretase I (BACE1), the “AUTOMATED ASSAY BACE1 pIC50” value is 7.84. Further, on β-secretase II (BACE2), the “AUTOMATED ASSAY BACE2 pIC50” value is given as 7.29.
For `COc1ncc(-c2ccc(F)cc2C)c2c1C[C@]1(c3cc(OCc4ccnc(C)c4)ccc3F)N=C(N)SC[C@@H]1C2` the same measures were 8.22 and 7.49.
The corresponding values for `COc1ncc(-c2ccccc2C)c2c1C[C@]1(c3cc(OCc4c(C)noc4C)ccc3F)N=C(N)SC[C@@H]1C2` are 7.37 and 6.29.
With `COc1ncc(-c2ccnc(C)c2)c2c1C[C@]1(c3cc(OCc4ccccn4)ccc3F)N=C(N)SC[C@@H]1C2`, the “AUTOMATED ASSAY BACE1 pIC50” value at β-secretase I (BACE1) is on record as 7.21. Besides, the “AUTOMATED ASSAY BACE2 pIC50” value on β-secretase II (BACE2) was determined as 7.6.
`COc1ccccc1-c1cnc(OC)c2c1C[C@H]1CSC(N)=N[C@@]1(c1cc(OCC3CCOCC3)ccc1F)C2`: on β-secretase I (BACE1), the “AUTOMATED ASSAY BACE1 pIC50” value was 6.47. Besides, the “AUTOMATED ASSAY BACE2 pIC50” value at β-secretase II (BACE2) is listed as 4.86.
The corresponding values for `COc1ncc(-c2cnn(-c3ccccc3)c2C)c2c1C[C@]1(c3ccc(F)cc3F)N=C(N)SC[C@@H]1C2` are 8.52 and 8.64.
